Assay results published in ChEMBL document CHEMBL3739296, “Discovery of anilinopyrimidine-based naphthamide derivatives as potent VEGFR-2 inhibitors” (Medchemcomm, 2015).

Sequences of proteins named here, by UniProt entry; tags and fusion partners are left off.
UniProt Q15303, whole entry, looked up: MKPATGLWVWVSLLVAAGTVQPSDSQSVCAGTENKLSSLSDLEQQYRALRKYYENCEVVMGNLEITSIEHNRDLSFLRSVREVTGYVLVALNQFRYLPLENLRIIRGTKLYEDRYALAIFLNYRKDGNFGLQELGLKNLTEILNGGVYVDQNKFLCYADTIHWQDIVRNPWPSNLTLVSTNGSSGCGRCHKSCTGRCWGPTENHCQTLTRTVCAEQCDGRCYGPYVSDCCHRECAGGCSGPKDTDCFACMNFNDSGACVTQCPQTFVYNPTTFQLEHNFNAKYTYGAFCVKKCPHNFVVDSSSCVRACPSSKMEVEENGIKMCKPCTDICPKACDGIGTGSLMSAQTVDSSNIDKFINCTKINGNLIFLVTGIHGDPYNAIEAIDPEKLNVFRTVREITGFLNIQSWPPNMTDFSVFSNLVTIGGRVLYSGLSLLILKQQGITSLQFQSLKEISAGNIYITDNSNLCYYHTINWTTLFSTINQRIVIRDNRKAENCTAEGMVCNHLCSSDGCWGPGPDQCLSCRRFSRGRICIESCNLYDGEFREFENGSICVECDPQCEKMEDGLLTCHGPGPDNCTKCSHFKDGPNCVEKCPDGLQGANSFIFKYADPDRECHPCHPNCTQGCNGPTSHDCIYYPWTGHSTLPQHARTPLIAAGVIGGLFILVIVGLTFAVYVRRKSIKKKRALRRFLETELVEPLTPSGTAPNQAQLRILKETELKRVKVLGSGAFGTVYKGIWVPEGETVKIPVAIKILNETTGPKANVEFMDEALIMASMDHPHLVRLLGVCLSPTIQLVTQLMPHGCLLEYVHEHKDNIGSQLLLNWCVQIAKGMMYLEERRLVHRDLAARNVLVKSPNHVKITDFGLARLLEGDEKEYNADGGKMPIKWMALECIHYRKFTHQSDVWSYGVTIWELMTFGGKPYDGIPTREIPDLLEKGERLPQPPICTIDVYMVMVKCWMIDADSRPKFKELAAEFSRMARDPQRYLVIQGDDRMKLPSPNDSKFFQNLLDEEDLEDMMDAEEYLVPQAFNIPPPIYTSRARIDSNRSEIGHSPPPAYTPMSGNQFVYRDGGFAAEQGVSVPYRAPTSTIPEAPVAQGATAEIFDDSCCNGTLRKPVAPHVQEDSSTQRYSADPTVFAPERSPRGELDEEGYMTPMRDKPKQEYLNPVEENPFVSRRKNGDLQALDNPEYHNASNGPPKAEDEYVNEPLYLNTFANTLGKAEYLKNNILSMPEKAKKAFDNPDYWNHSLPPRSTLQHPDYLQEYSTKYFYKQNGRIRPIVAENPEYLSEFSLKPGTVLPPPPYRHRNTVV
UniProt P21860, whole entry, looked up: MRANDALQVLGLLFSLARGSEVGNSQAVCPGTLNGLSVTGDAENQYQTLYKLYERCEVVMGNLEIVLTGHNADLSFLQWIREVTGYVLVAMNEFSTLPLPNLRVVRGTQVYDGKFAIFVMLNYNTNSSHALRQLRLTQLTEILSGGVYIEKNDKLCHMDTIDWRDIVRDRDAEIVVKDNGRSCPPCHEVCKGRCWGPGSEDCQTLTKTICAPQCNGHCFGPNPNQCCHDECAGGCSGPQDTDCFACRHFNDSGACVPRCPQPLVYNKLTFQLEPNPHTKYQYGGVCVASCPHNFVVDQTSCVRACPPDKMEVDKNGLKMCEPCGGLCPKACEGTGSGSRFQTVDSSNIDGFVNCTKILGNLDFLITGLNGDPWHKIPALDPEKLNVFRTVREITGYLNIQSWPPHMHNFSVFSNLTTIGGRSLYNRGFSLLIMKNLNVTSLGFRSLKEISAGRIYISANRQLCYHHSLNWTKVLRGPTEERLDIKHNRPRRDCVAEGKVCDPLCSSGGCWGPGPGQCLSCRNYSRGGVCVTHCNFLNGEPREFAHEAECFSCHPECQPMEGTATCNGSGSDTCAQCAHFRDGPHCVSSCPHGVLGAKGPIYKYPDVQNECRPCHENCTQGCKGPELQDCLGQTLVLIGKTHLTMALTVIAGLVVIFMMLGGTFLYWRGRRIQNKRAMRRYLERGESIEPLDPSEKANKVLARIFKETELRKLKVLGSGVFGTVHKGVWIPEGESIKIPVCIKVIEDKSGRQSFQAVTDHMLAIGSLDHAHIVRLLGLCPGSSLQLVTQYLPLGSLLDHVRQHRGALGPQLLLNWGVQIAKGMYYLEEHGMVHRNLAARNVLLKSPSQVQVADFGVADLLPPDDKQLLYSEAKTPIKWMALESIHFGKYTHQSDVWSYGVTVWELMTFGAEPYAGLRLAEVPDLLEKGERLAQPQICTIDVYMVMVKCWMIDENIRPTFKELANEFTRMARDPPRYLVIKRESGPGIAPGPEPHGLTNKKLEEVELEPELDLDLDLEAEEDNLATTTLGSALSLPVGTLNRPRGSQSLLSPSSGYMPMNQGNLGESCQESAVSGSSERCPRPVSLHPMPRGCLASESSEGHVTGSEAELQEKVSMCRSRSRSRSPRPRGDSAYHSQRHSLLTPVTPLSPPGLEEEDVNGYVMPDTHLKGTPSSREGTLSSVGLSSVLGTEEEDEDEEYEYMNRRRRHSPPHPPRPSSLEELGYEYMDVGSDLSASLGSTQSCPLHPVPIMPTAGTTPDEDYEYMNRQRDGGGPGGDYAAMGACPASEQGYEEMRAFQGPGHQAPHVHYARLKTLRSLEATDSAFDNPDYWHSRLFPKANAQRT

Experiments:
[1] = species on record: Homo sapiens; assay: Selectivity ratio of IC50 for human recombinant VEGFR1 to IC50 for human recombinant VEGFR2
[2] = species on record: Homo sapiens; assay: Selectivity ratio of IC50 for Flt3 (unknown origin) to IC50 for human recombinant VEGFR2
[3] = species on record: Homo sapiens; assay: Selectivity electivity ratio of IC50 for human recombinant RET to IC50 for human recombinant VEGFR2
[4] = species on record: Homo sapiens; assay: Selectivity ratio of IC50 for human recombinant PDGFRalpha to IC50 for human recombinant VEGFR2
[5] = species on record: Homo sapiens; assay: Selectivity ratio of IC50 for human recombinant PDGFRbeta to IC50 for human recombinant VEGFR2
[6] = target: T1, Epidermal growth factor receptor (Homo sapiens) (UniProt P04626+P00533+Q15303+P21860); assay: Selectivity ratio of IC50 for wild type human recombinant EGFR to IC50 for human recombinant VEGFR2; format: protein assay
[7] = species on record: Homo sapiens; assay: Selectivity ratio of IC50 for human recombinant ErbB2 to IC50 for human recombinant VEGFR2
[8] = species on record: Homo sapiens; assay: Selectivity ratio of IC50 for human recombinant ErbB4 to IC50 for human recombinant VEGFR2
[9] = target: T1, Epidermal growth factor receptor (Homo sapiens); assay: Selectivity ratio of IC50 for human recombinant EGFR T790M/L858R mutant to IC50 for human recombinant VEGFR2; format: protein assay
[10] = species on record: Homo sapiens; assay: Selectivity ratio of IC50 for c-Src (unknown origin) to IC50 for human recombinant VEGFR2
[11] = species on record: Homo sapiens; assay: Selectivity ratio of IC50 for human recombinant Abl to IC50 for human recombinant VEGFR2
[12] = species on record: Homo sapiens; assay: Selectivity ratio of IC50 for human recombinant EPHA2 to IC50 for human recombinant VEGFR2
[13] = species on record: Homo sapiens; assay: Selectivity ratio of IC50 for human recombinant IGF1R to IC50 for human recombinant VEGFR2
[14] = species on record: Homo sapiens; assay: Selectivity ratio of IC50 for human recombinant FGFR1 to IC50 for human recombinant VEGFR2

CS(=O)(=O)Cc1cccc(Nc2nccc(Oc3ccc4c(C(=O)Nc5ccccc5)cccc4c3)n2)c1
Ratio IC50 [1]: 18.6 | Ratio IC50 [2]: > 20000 | Ratio IC50 [3]: 118 | Ratio IC50 [4]: > 20000 | Ratio IC50 [5]: > 20000 | Ratio IC50 [6]: > 20000 | Ratio IC50 [7]: > 20000 | Ratio IC50 [8]: > 20000 | Ratio IC50 [9]: > 20000 | Ratio IC50 [10]: > 20000 | Ratio IC50 [11]: > 20000 | Ratio IC50 [12]: > 20000 | Ratio IC50 [13]: > 20000 | Ratio IC50 [14]: > 20000
